Legend:
[1] = tested on: internally quenched peptide probe with CM AWGLSGRS (SEQ ID NO: 686)
[2] = tested on: internally quenched peptide probe with CM LSGKSPWGL (SEQ ID NO: 178)
[3] = tested on: internally quenched peptide probe with CM LSGRSPAGL (SEQ ID NO: 694)
[4] = tested on: internally quenched peptide probe with CM LSGRSPWGL (SEQ ID NO: 177)
[5] = tested on: internally quenched peptide probe with CM PAGLSGRS (SEQ ID NO: 687)
[6] = tested on: internally quenched peptide probe with CM PWALSGRS (SEQ ID NO: 688)
[7] = tested on: internally quenched peptide probe with CM PWGASGRS (SEQ ID NO: 689)
[8] = tested on: internally quenched peptide probe with CM PWGLAGRS (SEQ ID NO: 690)
[9] = tested on: internally quenched peptide probe with CM PWGLRS (SEQ ID NO: 48)
[10] = tested on: internally quenched peptide probe with CM PWGLSARS (SEQ ID NO: 691)
[11] = tested on: internally quenched peptide probe with CM PWGLSG (SEQ ID NO: 684)
[12] = tested on: internally quenched peptide probe with CM PWGLSGAS (SEQ ID NO: 692)
[13] = tested on: internally quenched peptide probe with CM PWGLSGKS (SEQ ID NO: 150)
[14] = tested on: internally quenched peptide probe with CM PWGLSGR (SEQ ID NO: 163)
[15] = tested on: internally quenched peptide probe with CM PWGLSGRA (SEQ ID NO: 693)
[16] = tested on: internally quenched peptide probe with CM PWGLSGRS (SEQ ID NO: 12)
[17] = tested on: internally quenched peptide probe with CM RSPWGL (SEQ ID NO: 90)
[18] = tested on: internally quenched peptide probe with CM WGLSGRS (SEQ ID NO: 685)

urokinase-type plasminogen activator (uPA)
Probe Cleavage (pM/s) [1]: 832 pM/s
Probe Cleavage (pM/s) [2]: 117 pM/s
Probe Cleavage (pM/s) [3]: 620 pM/s
Probe Cleavage (pM/s) [4]: 668 pM/s
Probe Cleavage (pM/s) [5]: 1570 pM/s
Probe Cleavage (pM/s) [6]: 1130 pM/s
Probe Cleavage (pM/s) [7]: 1310 pM/s
Probe Cleavage (pM/s) [8]: 126 pM/s
Probe Cleavage (pM/s) [9]: -
Probe Cleavage (pM/s) [10]: 1520 pM/s
Probe Cleavage (pM/s) [11]: 12.9 pM/s
Probe Cleavage (pM/s) [12]: 1.8 pM/s
Probe Cleavage (pM/s) [13]: 15.2 pM/s
Probe Cleavage (pM/s) [14]: 48.3 pM/s
Probe Cleavage (pM/s) [15]: 380 pM/s
Probe Cleavage (kcat/KM (M^-1 s^-1)) [16]: 5300 M⁻¹ s⁻¹
Probe Cleavage (pM/s) [16]: 429 pM/s
Probe Cleavage (kcat/KM (M^-1 s^-1)) [17]: 66000 M⁻¹ s⁻¹
Probe Cleavage (pM/s) [17]: 3210 pM/s
Probe Cleavage (pM/s) [18]: 548 pM/s

— patent publication US20250215095
